# Yeast mating assay B: variants of the scFv Ab-14

Values reported by Li et al. 2023, doi:10.1038/s41467-023-39022-2 (FLAb copy).

Target peptide (SARS-CoV-2 spike, HR2 region): PDVDLGDISGINAS

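The parent was found by panning a naive human phage display library on the peptide. These sequences belong to a second round, designed from the earlier measurements on random variants of the parent. Their group label is 14L_GP_Gen (GP: Gaussian process model; Gen: genetic algorithm; a sequence that several methods proposed may carry one label only). The assay is AlphaSeq: two haploid yeast populations carry antibody and antigen on their surface. Binding brings cells together so that they mate, and sequencing counts the barcode pairs among the diploids. A regression on co-assayed BCL2-family reference pairs converts the normalised counts of each replicate to an apparent Kd. There are six technical replicates.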

Parent scFv Ab-14: VH joined to VL by a (GGGGS)3 linker. Changes lie in the light chain CDRs alone.
VH: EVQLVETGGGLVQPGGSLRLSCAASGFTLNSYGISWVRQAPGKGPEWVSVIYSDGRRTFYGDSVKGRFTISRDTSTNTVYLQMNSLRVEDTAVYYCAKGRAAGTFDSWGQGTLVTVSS
VL: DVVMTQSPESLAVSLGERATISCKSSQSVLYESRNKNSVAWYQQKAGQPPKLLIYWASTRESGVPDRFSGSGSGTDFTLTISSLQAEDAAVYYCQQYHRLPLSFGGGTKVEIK

Substitutions are numbered in sequence along the VL above, starting at 1 (not Kabat).
Affinities are written as log10 Kd with Kd in nM; a lower number is a better binder.
A mean of the replicates is given; it leaves out those without a signal.
A pair that was not seen in that replicate is written "ND"; this usually means weak binding, but a binder can also be missed.
Of ten entries with the parent sequence, four were seen in most replicates (averages 0.34 to 2.37), three in one and three in none, so single entries are noisy.
The authors' rule: three or more of the six replicates give a measured affinity, fewer mean a poor binder.
The range of this assay differs from that of the first round, and the authors advise against merging the two.
Empty control strains, which show no peptide, gave a signal in 4% of pairings with all light chain designs; the median was 2.64 and 95% of these signals were weaker than 1.59. No background was subtracted. For each scFv, signals with the empty controls are counted beside the result, with their mean in brackets.

| # | changes | replicates, log10 nM | mean log10 Kd (nM) | signal with controls |
|---|---|---|---|---|
| 1 | S25F/V29W/W56N/T59Q/S62Q | -0.34 / -0.38 / -0.48 / -0.61 / -0.51 / -0.38 | -0.45 | 1 of 18 (3.05) |
| 2 | S25I/L30P/S33D/W56N | ND / ND / 2.35 / ND / ND / 2.22 | 2.28 | 0 of 18 |
| 3 | V29E/W56E/E61L | 0.34 / 0.10 / -0.05 / 0.19 / 0.03 / 0.12 | 0.12 | 2 of 18 (2.68) |
| 4 | S25L/S26W/W56N/E61M | 0.17 / 0.27 / 0.05 / 0.15 / 0.20 / 0.40 | 0.21 | 3 of 18 (2.58) |
| 5 | S25L/V29E/W56N/T59Q | 0.92 / 1.15 / 0.71 / 1.01 / 0.83 / 1.04 | 0.94 | 0 of 18 |
| 6 | S25M/S26P/W56N | -0.26 / -0.15 / -0.52 / -0.46 / -0.24 / -0.16 | -0.30 | 0 of 18 |
| 7 | S25V/Y31M/E32Q/W56E | 0.95 / 2.14 / ND / 1.90 / 2.08 / 1.51 | 1.72 | 0 of 18 |
| 8 | S25L/N35M/K36T/W56N | -0.18 / -0.18 / -0.31 / -0.17 / -0.23 / -0.16 | -0.21 | 3 of 18 (3.22) |
| 9 | S25V/V29W/K36S/W56N/T59Q | 0.49 / 0.40 / 0.46 / 0.30 / 0.48 / 0.69 | 0.47 | 1 of 18 (1.87) |
| 10 | S25L/Q27G/V29W/W56N/E61M | 0.56 / 0.73 / 0.27 / 0.47 / 0.32 / 0.18 | 0.42 | 0 of 18 |
| 11 | S25L/S26M/V29F/W56N | -0.06 / -0.10 / 0.13 / -0.17 / -0.01 / 0.08 | -0.02 | 1 of 18 (3.48) |
| 12 | S25L/S33E/W56Q | 0.27 / 0.31 / -0.19 / 0.02 / 0.24 / 0.42 | 0.18 | 0 of 18 |
| 13 | S25L/S26Q/W56E/S62Q | -0.21 / -0.06 / -0.57 / -0.32 / -0.34 / -0.22 | -0.29 | 0 of 18 |
| 14 | S25L/S26Q/L30D/W56N/E61M | -0.03 / -0.15 / -0.22 / -0.20 / -0.20 / 0.06 | -0.12 | 1 of 18 (3.39) |
| 15 | S25L/S26M/V29M/W56N/T59Y | -0.21 / -0.33 / -0.34 / -0.17 / -0.37 / -0.08 | -0.25 | 0 of 18 |
| 16 | S25L/V29G/W56D | 0.08 / 0.17 / -0.43 / -0.34 / -0.16 / -0.15 | -0.14 | 1 of 18 (2.11) |
| 17 | S25L/V29A/S38N/W56N | -0.25 / -0.08 / -0.36 / -0.52 / -0.39 / -0.30 | -0.32 | 1 of 18 (2.41) |
| 18 | S25L/K36F/W56N/E61S | 0.23 / 0.05 / 0.19 / 0.14 / 0.09 / 0.03 | 0.12 | 1 of 18 (2.54) |
| 19 | S25L/S26Q/W56H/Q96D | 0.48 / 0.30 / 0.44 / 0.41 / 0.41 / 0.49 | 0.42 | 1 of 18 (2.48) |
| 20 | S25L/S26P/V29Q/L30G/W56N/T59Q | 0.34 / 0.20 / 0.20 / -0.02 / -0.04 / 0.33 | 0.17 | 0 of 18 |
| 21 | S25V/S26Y/V29G/W56N | -0.30 / -0.29 / -0.53 / -0.45 / -0.42 / -0.19 | -0.36 | 2 of 18 (3.44) |
| 22 | S25L/V29N/N35M/W56N/E61L | 0.67 / 0.70 / 0.53 / 0.33 / 0.23 / 0.49 | 0.49 | 1 of 18 (1.94) |
| 23 | S25L/V29E/W56N/A57G | 0.18 / -0.18 / 0.08 / -0.29 / -0.10 / 0.18 | -0.02 | 4 of 18 (2.21) |
| 24 | S25L/V29E/W56E/S62Q | 0.21 / 0.20 / 0.03 / 0.15 / 0.10 / 0.38 | 0.18 | 2 of 18 (2.59) |
| 25 | S25F/V29E/W56G/T59Q | -0.03 / -0.09 / -0.09 / -0.28 / -0.16 / 0.07 | -0.10 | 1 of 18 (3.23) |
| 26 | S25L/L30M/W56N/E61L | 0.40 / 0.14 / -0.11 / -0.19 / -0.06 / 0.18 | 0.06 | 1 of 18 (1.98) |
| 27 | S25L/S26Q/W56D/E61L | -0.49 / -0.88 / -0.64 / -0.02 / -0.23 / -0.40 | -0.44 | 1 of 18 (1.32) |
| 28 | S25L/V29Q/W56N/S62E | -0.04 / -0.43 / -0.27 / -0.65 / -0.47 / -0.30 | -0.36 | 0 of 18 |
| 29 | S25V/Q27P/V29W/W56D | -0.02 / -0.28 / -0.23 / -0.35 / -0.29 / -0.17 | -0.22 | 1 of 18 (2.28) |
| 30 | S25L/Q27S/V29E/W56N | 0.32 / 0.48 / 0.52 / -0.03 / 0.27 / 0.89 | 0.41 | 0 of 18 |
| 31 | S25L/S33Q/W56E | -0.24 / 0.11 / -0.35 / -0.56 / -0.21 / -0.38 | -0.27 | 0 of 18 |
| 32 | S25L/S26Q/K36P/W56N | -0.56 / -0.48 / -0.65 / -0.89 / -0.55 / -0.40 | -0.59 | 0 of 18 |
| 33 | S25L/S26Q/V29W/W56E/T59Q | 0.01 / -0.16 / -0.59 / -0.43 / -0.33 / -0.22 | -0.29 | 1 of 18 (1.90) |
| 34 | S25L/Y31M/W56E/S62M | -0.37 / -0.36 / -0.25 / -0.29 / -0.40 / -0.22 | -0.31 | 0 of 18 |
| 35 | S25M/S26Q/W56N/T59Q | -0.25 / -0.34 / -0.40 / -0.59 / -0.42 / -0.44 | -0.41 | 3 of 18 (3.25) |
| 36 | S25M/V29E/W56D/T59Q | -0.24 / -0.42 / -0.28 / -0.56 / -0.43 / -0.30 | -0.37 | 2 of 18 (3.85) |
| 37 | S25L/S38N/W56D/Q96A | -0.41 / -0.44 / -0.41 / -0.48 / -0.60 / -0.26 | -0.43 | 3 of 18 (3.39) |
| 38 | S25V/V29N/W56N/T59Q/E61L | 0.02 / 0.01 / 0.00 / -0.15 / 0.01 / 0.17 | 0.01 | 1 of 18 (2.54) |
| 39 | S25L/V29W/W56N/E61M/Q96D | -0.11 / -0.39 / -0.12 / -0.56 / -0.47 / -0.21 | -0.31 | 0 of 18 |
| 40 | S25L/S26P/V29E/W56N | -0.09 / 0.08 / -0.30 / -0.17 / -0.30 / 0.04 | -0.12 | 1 of 18 (3.82) |
| 41 | S25V/V29W/S38A/W56E | -0.08 / -0.10 / -0.15 / -0.33 / -0.16 / -0.16 | -0.16 | 0 of 18 |
| 42 | S25L/S26M/W56N/T59K | -0.03 / -0.05 / -0.15 / -0.30 / 0.10 / 0.22 | -0.04 | 2 of 18 (3.00) |
| 43 | S25L/S26Q/V29E/W56G/E61L | -0.15 / -0.43 / -0.43 / -0.66 / -0.57 / -0.31 | -0.42 | 0 of 18 |
| 44 | S25L/S26E/S28Q/V29W/W56N/T59Q | 0.28 / 0.28 / -0.08 / 0.09 / 0.03 / -0.07 | 0.09 | 0 of 18 |
| 45 | S25L/V29D/W56N/T59L | 0.13 / -0.17 / -0.13 / 0.11 / -0.04 / 0.19 | 0.02 | 0 of 18 |
| 46 | S25L/S26P/V29D/W56E/T59Q | -0.33 / -0.23 / -0.17 / -0.40 / -0.23 / -0.01 | -0.23 | 0 of 18 |
| 47 | S25L/V29E/W56N/E61L/S62Q | 0.00 / 0.15 / -0.25 / -0.20 / 0.03 / 0.01 | -0.04 | 1 of 18 (2.54) |
| 48 | S25V/S26Q/V29H/W56N/T59Y | -0.07 / -0.25 / -0.22 / -0.51 / -0.45 / -0.04 | -0.25 | 0 of 18 |
| 49 | S25L/Q27G/W56H | -0.33 / 0.05 / -0.13 / -0.50 / -0.36 / -0.19 | -0.24 | 0 of 18 |
| 50 | S25L/S26P/W56N/E61M | 0.27 / 0.13 / 0.10 / 0.25 / 0.00 / 0.10 | 0.14 | 0 of 18 |
| 51 | S25L/S26V/W56N/E61L | 0.09 / 0.03 / -0.14 / -0.10 / -0.02 / -0.01 | -0.02 | 3 of 18 (3.70) |
| 52 | S25L/S26M/W56N/T59Q/S62Q | 0.08 / 0.14 / -0.12 / -0.25 / -0.17 / -0.08 | -0.07 | 1 of 18 (2.41) |

Picked from the list: the 4 lowest averages where every replicate gave a value.

changes	replicates, log10 nM	mean log10 Kd (nM)	signal with controls
S25L/S26Q/K36P/W56N	-0.56 / -0.48 / -0.65 / -0.89 / -0.55 / -0.40	-0.59	0 of 18
S25F/V29W/W56N/T59Q/S62Q	-0.34 / -0.38 / -0.48 / -0.61 / -0.51 / -0.38	-0.45	1 of 18 (3.05)
S25L/S26Q/W56D/E61L	-0.49 / -0.88 / -0.64 / -0.02 / -0.23 / -0.40	-0.44	1 of 18 (1.32)
S25L/S38N/W56D/Q96A	-0.41 / -0.44 / -0.41 / -0.48 / -0.60 / -0.26	-0.43	3 of 18 (3.39)